{
  "source": "PubChem BioAssay AID651661",
  "about": "(Broad Institute, 2012)",
  "note": "The list shows a part of the results, in another mix than the full data. Some tests of the compounds listed are not included; inactive here does not mean inactive elsewhere. Active and inactive are the calls of the source.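 How the source made its calls: active means mean inhibition of at least 50% after viability correction, with every replicate also passing that limit; inconclusive means mean reaches 50% but only one of two replicates passes; inactive means the rest.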",
  "data": [
    {"assay": "blockers of EWS/Fli transcriptional output – A673 cells, NR0B1 luciferase, luminescence, MLPCN library, primary screen (AID 651661);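 further: firefly luciferase signal divided by Alamar Blue viability fluorescence both relative to DMSO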", "conditions": "A673 NR0B1-luciferase reporter, viability-normalised; at 12.6 µM; hits give high values", "values": [
      {"smiles": "CC(C)Oc1ccc(C(=O)NCC2(N(C)C)CCCCC2)cc1", "inhibition": "inactive: -8.77%"},
      {"smiles": "O=C(OCCN1CCCC1)C(O)(c1ccccc1)c1ccccc1", "inhibition": "inactive: 3.48%"},
      {"smiles": "COc1ccc(Br)c(C(=O)NCC2(N3CCCCC3)CCCCC2)c1", "inhibition": "inactive: -2.33%"},
      {"smiles": "C=C(C)C#CC(O)(C(=O)OC1CCN(C)CC1)c1ccccc1", "note": "(configuration not stated)", "inhibition": "inactive: 3.91%"},
      {"smiles": "COc1cc(C(=O)NCC2(N(C)C)CCCCC2)c([N+](=O)[O-])cc1OC", "inhibition": "inactive: -2.96%"},
      {"smiles": "CN(C)C1(CNC(=O)c2ccc(Br)cc2)CCCCC1", "inhibition": "inactive: 12.7%"},
      {"smiles": "O=C(NCC1(N2CCCCC2)CCCCC1)c1cccc(Cl)c1", "inhibition": "inactive: -5.61%"},
      {"smiles": "COc1cccc(C(=O)NCC2(N3CCCCC3)CCCCC2)c1", "inhibition": "inactive: -5.13%"},
      {"smiles": "COc1ccc(Cl)cc1C(=O)NCC1(N(C)C)CCCCC1", "inhibition": "inactive: 1.2%"},
      {"smiles": "Cc1ccccc1C(=O)NCC1(N2CCCCC2)CCCCC1", "inhibition": "inactive: -2.56%"},
      {"smiles": "CN(C)c1ccc(C(=O)NCC2(N(C)C)CCCCC2)cc1", "inhibition": "inactive: -0.708%"},
      {"smiles": "CN(C)C1CCCC1OC(=O)C(O)(c1ccccc1)c1ccccc1", "note": "(configuration not stated)", "inhibition": "inactive: -8.57%"},
      {"smiles": "Cc1cc(C(=O)NCC2(N3CCCCC3)CCCCC2)ccc1[N+](=O)[O-]", "inhibition": "inactive: -12.5%"},
      {"smiles": "O=C(NCC1(N2CCCCC2)CCCCC1)c1cccc(Br)c1", "inhibition": "inactive: -13.8%"},
      {"smiles": "COc1ccc(C(=O)NCC2(N(C)C)CCCCC2)cc1", "inhibition": "inactive: 1.16%"},
      {"smiles": "C=CCN1CCN(CCOC(=O)C(O)(c2ccccc2)c2ccccc2)CC1", "inhibition": "inactive: 1.05%"},
      {"smiles": "O=C(NCC1(N2CCCCC2)CCCCC1)c1cc(F)c(F)cc1Cl", "inhibition": "inactive: -0.197%"},
      {"smiles": "CN1[C@@H]2CC[C@H]1CC(OC(=O)C(O)(c1ccccc1)c1ccccc1)C2", "note": "(some centres not stated)", "inhibition": "inactive: 1.82%"},
      {"smiles": "O=C(NCC1(N2CCCCC2)CCCCC1)c1cc([N+](=O)[O-])ccc1Cl", "inhibition": "inactive: 4.3%"},
      {"smiles": "Cc1ccc(C(=O)NCC2(N3CCCCC3)CCCCC2)cc1", "inhibition": "inactive: 4.85%"},
      {"smiles": "CCN(CC)CC(C)C(C)OC(=O)C(O)(c1ccccc1)c1ccccc1", "note": "(configuration not stated)", "inhibition": "inactive: 4.98%"},
      {"smiles": "COc1cc(SC)ccc1C(=O)NCC1(N(C)C)CCCCC1", "inhibition": "inactive: 6.46%"}
    ]}
  ]
}
